## Ab-14 heavy chain CDR variants: yeast mating affinities

Antigen: PDVDLGDISGINAS, a 14-residue peptide of the SARS-CoV-2 spike HR2 region.

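The starting antibody came from a phage panning campaign against this peptide. Variants in AAYL49 differ from the parent at up to three CDR positions; double and triple changes were sampled at random. AlphaSeq pools MATa yeast showing the antibodies with MATalpha yeast showing the peptide. The frequency of each diploid, read from paired DNA barcodes, reflects how well the two displayed proteins bind. Read counts were normalised to the haploid input and turned into Kd by a linear fit to BCL2-family pairs of known affinity, for each replicate. There are three technical replicates.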

Parent: Ab-14, a human scFv built as VH, a (GGGGS)3 linker, VL. Only the CDRs of the heavy chain vary.
VH: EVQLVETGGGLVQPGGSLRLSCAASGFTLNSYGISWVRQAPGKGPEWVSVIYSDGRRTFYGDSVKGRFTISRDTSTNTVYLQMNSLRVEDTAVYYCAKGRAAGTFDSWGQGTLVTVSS
VL: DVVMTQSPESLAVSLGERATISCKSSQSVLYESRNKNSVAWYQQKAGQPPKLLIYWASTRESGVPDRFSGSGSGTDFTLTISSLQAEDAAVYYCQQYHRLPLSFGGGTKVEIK

Variants are written as CDR1, CDR2 and CDR3 of the heavy chain (limits as in the source). Parent: GFTLNSYGIS, VIYSDGRRTFYGDSVK, GRAAGTFDS. Affinities are written as log10 Kd with Kd in nM; a lower number is a better binder. Where no diploid with the target was found in that replicate, the entry reads "n.d.": below detection, most likely a poor binder, though not proof of it. Nonspecific signal, from three strains lacking the peptide, appeared in 15% of pairings of library AAYL49, centred on 4.06 (5% of these signals below 2.83); values are not corrected for it. The control count says in how many pairings with the empty strains this scFv gave a signal, with their mean in brackets.

| # | CDR-H1 | CDR-H2 | CDR-H3 | log10 Kd, replicates | empty controls |
|---|---|---|---|---|---|
| 1 | GFTLNSEGIS | VIYSQGRRTFYGMSVK | GRAAGTFDS | n.d. n.d. n.d. | 0 of 9 |
| 2 | EFTLNSYGIS | MIYSDGRRTFYGDSKK | GRAAGTFDS | n.d. n.d. n.d. | 1 of 9 (3.25) |
| 3 | GFTLNSYGIS | VIYSDGRRTFYGDSVK | QRAIMTFDS | n.d. n.d. n.d. | 0 of 9 |
| 4 | GFTLNSYGIS | VISSDGRRTFYGDSVK | GRGAGTFFS | 5.96 n.d. 4.78 | 1 of 9 (3.98) |
| 5 | GFTLNSYGIS | VIYSDLRRTFYGQSVK | GRAAGTFDS | n.d. n.d. n.d. | 0 of 9 |
| 6 | GFTLNSYGYH | VIYSDGRRTFYGDSVK | GRAAGTFCS | n.d. n.d. n.d. | 0 of 9 |
| 7 | GNTLNSYGIS | VIYSGGRRTFYGDSVK | GRAAGTFVS | n.d. n.d. n.d. | 0 of 9 |
| 8 | GFTLNSYGIS | VFYSDLRRTFYGDSVK | GRAMGTFDS | n.d. n.d. n.d. | 0 of 9 |
| 9 | GFTLNSYGIS | VIYTDGRRTFYGDRVK | FRAAGTFDS | 4.00 2.84 n.d. | 0 of 9 |
| 10 | GFKLNSYGIS | VIYSQGRRTFYGDSVK | GRAAGTFDK | n.d. n.d. n.d. | 0 of 9 |
| 11 | GFTLNSYGIS | VIYSVGRRTFYGDSVK | GRHAGTFDS | n.d. n.d. n.d. | 0 of 9 |
| 12 | GNTLNSYGIS | VIYSDGRRTFYGDSVK | GRANGTFDM | 4.27 n.d. 5.34 | 1 of 9 (4.78) |
| 13 | GFTLNSYGIS | VIFNDGRRTFYGDSVK | GRAAGTKDS | n.d. n.d. 3.44 | 2 of 9 (4.10) |
| 14 | GFTLNEYGIS | VIYSDGRRTFYGDMTK | GRAAGTFDS | n.d. n.d. n.d. | 0 of 9 |
| 15 | GFTLNSYWIS | VIYSDGRRTFYGHSVK | GRAAGTFDD | n.d. n.d. n.d. | 0 of 9 |
| 16 | GFTLNSYGIS | VIYSDGRRTEYGDSVK | GRAAGTFDS | 1.28 1.61 1.36 | 3 of 9 (4.16) |
| 17 | GFTLNSYGIM | VQYSDGRRTFYGDSVK | GRAAGTFDS | n.d. n.d. n.d. | 0 of 9 |
| 18 | GFTLNSYGFS | VHGSDGRRTFYGDSVK | GRAAGTFDS | n.d. 5.13 n.d. | 3 of 9 (3.62) |
| 19 | GFTLNSYGDS | VIYSDGRRTFYCDSVK | GRAAGQFDS | n.d. n.d. n.d. | 1 of 9 (3.52) |
| 20 | GFTLNSYWIS | VIYSDWRRTFYGDSVK | GRAAWTFDS | n.d. n.d. n.d. | 2 of 9 (3.82) |
| 21 | GFTQNSYGIF | VIYSDGRHTFYGDSVK | GRAAGTFDS | n.d. n.d. n.d. | 1 of 9 (3.71) |
| 22 | GFTLNSYGIS | VIYSDGRWTFYGDNVK | GRAAGTQDS | n.d. n.d. n.d. | 0 of 9 |
| 23 | GFTLNSYGIS | VIYSDGRRTFYGDSVK | GREVGTFDS | n.d. n.d. n.d. | 0 of 9 |
| 24 | GFTLNSYGIS | VIYSDGRCTFDGDSVK | GRANGTFDS | n.d. 2.87 n.d. | 0 of 9 |
| 25 | GFTWNSYGIS | VIYIDGRRTFYGDSVK | GIAAGTFDS | 5.63 3.72 5.13 | 4 of 9 (4.23) |
| 26 | GFTLNSYGIS | VIYDDGRRTFYGDSVP | GRAAGTYDS | n.d. n.d. n.d. | 2 of 9 (3.37) |
| 27 | GFTLNSWGES | VIYSDGRRTFYGDSVK | GRARGTFDS | n.d. n.d. n.d. | 1 of 9 (4.66) |
| 28 | GFTLNSYGIS | VIYSDGRRTFYGDSQK | ARAAMTFDS | n.d. n.d. n.d. | 1 of 9 (4.61) |
| 29 | GFTLNPYGIS | VIYSNGRRTFYGDSVL | GRAAGTFDS | 4.35 5.40 n.d. | 1 of 9 (3.15) |
| 30 | GFTLNRYGIS | VIYSDGRRTFYYDSVN | GRAAGTFDS | n.d. 3.34 4.18 | 2 of 9 (3.40) |
| 31 | GFTLNTYGIS | WIYSDGRRTFYPDSVK | GRAAGTFDS | n.d. n.d. n.d. | 0 of 9 |
| 32 | GFTLNSYGIR | VIYSDGRRTFYGDSDK | GRAALTFDS | n.d. n.d. n.d. | 2 of 9 (4.78) |
| 33 | GFTLNSYEIS | VIYSDGRRTFYGDSVK | GRAAGTFDS | n.d. n.d. n.d. | 0 of 9 |
| 34 | GGTLNSYGIS | VIYSDGRRTFYGDAVK | GRAAGTFDS | 1.99 2.19 2.05 | 1 of 9 (4.12) |
| 35 | GFTLNSYGIS | YIYSDGRRTFYGDSVK | GRVALTFDS | n.d. n.d. n.d. | 1 of 9 (2.86) |
| 36 | GFTLNSYGIS | VAYSDGRRPFYGDMVK | GRAAGTFDS | n.d. n.d. n.d. | 0 of 9 |
| 37 | GFTLFSYGIS | VIYSDGRRTFYGDSVK | GRAAGTFDS | 1.76 1.86 2.02 | 0 of 9 |

A selection of 6 entries from above:

| CDR-H1 | CDR-H2 | CDR-H3 | log10 Kd, replicates | empty controls |
|---|---|---|---|---|
| GFTLNSYGIS | VIYSDLRRTFYGQSVK | GRAAGTFDS | n.d. n.d. n.d. | 0 of 9 |
| GFTLNPYGIS | VIYSNGRRTFYGDSVL | GRAAGTFDS | 4.35 5.40 n.d. | 1 of 9 (3.15) |
| GFTLNSEGIS | VIYSQGRRTFYGMSVK | GRAAGTFDS | n.d. n.d. n.d. | 0 of 9 |
| GFTLNSYGIS | VISSDGRRTFYGDSVK | GRGAGTFFS | 5.96 n.d. 4.78 | 1 of 9 (3.98) |
| GFTLNSYGIS | VIFNDGRRTFYGDSVK | GRAAGTKDS | n.d. n.d. 3.44 | 2 of 9 (4.10) |
| GFTQNSYGIF | VIYSDGRHTFYGDSVK | GRAAGTFDS | n.d. n.d. n.d. | 1 of 9 (3.71) |

For reference, the parent read 0.65 as the reference entry and 4.11 (one replicate of three) as a member of this library.

From the AlphaSeq antibody data of Engelhart et al. 2022 (doi:10.1038/s41597-022-01779-4), copy in the FLAb collection.